Test results from patent US20160339026A1, “TOPICAL COMPOSITIONS COMPRISING MODULATORS OF TRPM8” (Senomyx, Inc., priority 2015, published 2016).

Chains of the proteins cited; added tags and fusions are not shown.
UniProt Q7Z2W7, whole entry: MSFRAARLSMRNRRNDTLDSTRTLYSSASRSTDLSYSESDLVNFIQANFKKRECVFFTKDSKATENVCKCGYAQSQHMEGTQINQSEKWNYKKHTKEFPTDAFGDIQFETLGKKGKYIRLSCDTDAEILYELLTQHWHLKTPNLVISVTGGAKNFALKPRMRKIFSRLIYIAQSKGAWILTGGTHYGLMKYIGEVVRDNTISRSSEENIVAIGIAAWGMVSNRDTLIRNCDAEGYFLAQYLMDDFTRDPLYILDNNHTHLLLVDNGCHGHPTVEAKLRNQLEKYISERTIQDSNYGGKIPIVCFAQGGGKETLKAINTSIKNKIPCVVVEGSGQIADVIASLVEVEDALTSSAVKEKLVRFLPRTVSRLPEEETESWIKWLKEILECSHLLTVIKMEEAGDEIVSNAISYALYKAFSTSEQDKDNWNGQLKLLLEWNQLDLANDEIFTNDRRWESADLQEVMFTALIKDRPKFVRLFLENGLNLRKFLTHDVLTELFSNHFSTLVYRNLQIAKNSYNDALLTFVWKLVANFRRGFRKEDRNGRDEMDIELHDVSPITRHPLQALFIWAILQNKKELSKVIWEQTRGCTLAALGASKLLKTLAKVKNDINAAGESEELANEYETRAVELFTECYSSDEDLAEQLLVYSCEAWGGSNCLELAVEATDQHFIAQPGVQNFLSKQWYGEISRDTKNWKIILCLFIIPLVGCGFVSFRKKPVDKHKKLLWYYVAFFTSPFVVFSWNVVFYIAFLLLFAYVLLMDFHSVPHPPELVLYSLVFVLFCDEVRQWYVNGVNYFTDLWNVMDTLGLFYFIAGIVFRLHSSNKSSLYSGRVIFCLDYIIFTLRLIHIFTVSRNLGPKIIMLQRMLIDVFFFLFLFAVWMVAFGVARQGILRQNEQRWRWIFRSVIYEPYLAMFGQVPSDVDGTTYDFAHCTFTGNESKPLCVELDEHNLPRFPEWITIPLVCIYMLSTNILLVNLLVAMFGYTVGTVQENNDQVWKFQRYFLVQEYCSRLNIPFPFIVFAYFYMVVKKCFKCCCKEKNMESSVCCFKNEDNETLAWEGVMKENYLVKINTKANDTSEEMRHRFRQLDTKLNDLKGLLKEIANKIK

Biological target: hTRPM8 (Homo sapiens, UniProt Q7Z2W7)
Experiment: Cell line stably expressing TRPM8, agonist assay, compounds of Formula (III)
Conditions: Table 3.1
Method: A mammalian cell line derivative which stably expresses TRPM8 was used in biological assays in association with testing the present compounds with cool-tasting or -feeling properties (Servant et al. US 2007/0259354 A1 and references cited therein, which is incorporated herein by reference in their entirety). Typical compound concentrations tested were 50 μM, 20 μM, 10 μM, 5 μM, 2 μM, 1 μM, 0.5 μM, 0.1 μM, 0.05 μM, 0.01 μM, and other concentration points in between. The present compounds have shown strong activity as agonists of hTRPM8. Assay results for compounds are illustrated in Table 3.1 below. Specifically, the Compounds listed in Table 3.1, i.e., Compounds 3.A1 to Compounds 3.G1 are specific compounds described above falling within Formula (III).

CCC(CC)C(C)C(=O)N(C)CC(=O)c1ccccc1 (centres unmarked)
EC50: 2350 nM | EC50 Ratio (WS3): 3.8
